Results as given in patent US10940151B2, “Methods for treating renal disease” (Beth Israel Deaconess Medical Center, Inc., priority 2012, dated 2021).

System: APOL1 mRNA expression in endothelial cells
Assay: APOL1 mRNA expression in endothelial cells after stimulation with interferons, TLR/RIG agonists or bacterial DNA
Assay type: cell-based
Conditions: interferon stimulation (FIG. 3A, 3B)
Description: Interferons cause log-fold upregulation of APOL1 gene expression in several cell types. Both type 1 (alpha and beta) interferons and type 2 (gamma) interferon greatly amplifies APOL1 expression in both endothelial cells and podocytes.
HIV is a powerful inducer of APOL1 renal disease in individuals with the renal risk genotype. Other viruses such as parvovirus have been associated with FSGS. Viral sensing stimulates APOL1 expression. Cells have extracellular, endosomal, and cytoplasmic viral sensors such as TLRs, Rig-L1, and others. These genes are potential targets for reducing APOL1 expression.

B1: interferon beta: type 1 interferon (protein, UniProt P01574 22-187, looked up)
Interferon beta: MSYNLLGFLQRSSNFQCQKLLWQLNGRLEYCLKDRMNFDIPEEIKQLQQFQKEDAALTIYEMLQNIFAIFRQDSSSTGWNETIVENLLANVYHQINHLKTVLEEKLEKEDFTRGKLMSSLHLKRYYGRILHYLKAKEYSHCAWTIVRVEILRNFYFINRLTGYLRN
upregulation of APOL1: up to 30 fold
